From patent US20260306460A1, “COMPOSITION FOR REMOVING AND INHIBITING SENESCENT CELLS, AND USES THEREOF” (LIFECEUTIX CO., LTD., priority 2023, published 2026)

Tests used:
[1] = tested on: doxorubicin-induced aged C57BL6J mice; experiment: Liver damage (AST, ALT) in doxorubicin-aged mice, Example 22-8, Table 37; assay type: in vivo, mouse; conditions: serum, amount after aging calculated as 100%
Description: Eight-week-old male C57BL6J mice (KRIBB Laboratory Animal Resource Center) were acclimated to the experimental environment for one week. […] The aging-induced mice were randomly assigned to experimental and control groups. LX-403 was mixed with a 10% ethanol solution of PEG400 and administered orally at a concentration of 25 mg/kg or intradermally at a concentration of 1 μM for 21 days. LX-1801 was mixed in distilled water with 4% DMSO, 30% PEG300, and 5% Tween80 and administered intradermally at a concentration of 0.4 μM daily for 21 days. LX-2001 was mixed in PBS and administered intradermally at a concentration of 2 μM daily for 21 days. LX-2002 was mixed in distilled water with 4% DMSO, 30% PEG300, and 5% Tween80 and administered intradermally at a concentration of 2 μM daily for 21 days. […] LX-2005 was mixed in distilled water with 4% DMSO, 30% PEG300, and 5% Tween80 and administered intradermally at a concentration of 90 μM daily for 21 days. LX-2007 was mixed in distilled water with 4% DMSO, 30% PEG300, and 5% Tween80 and administered intradermally at a concentration of 90 μM daily for 21 days. […]
The amounts were measured spectrophotometrically using a kit (Sigma) according to the manufacturer's instructions. […] The amount of each factor after aging was calculated as 100% and compared with the amount of each factor after treatment with the test compound.

[2] = tested on: obesity-induced aged C57BL6J mice; experiment: Fatty liver (Oil Red O, AST, ALT) in obesity-aged mice, Example 23-5, Table 45; assay type: in vivo, mouse; conditions: serum, daily for 21 days, untreated 100%
Description: 15-week-old male C57BL6J mice (The Jackson Laboratory) were induced to obesity by a high-fat diet using the same method as in Example 9-1 WO2023-085787 A1. After acclimation to the experimental environment for one week, the mice were randomly assigned to experimental and control groups. […] LX-3002 was mixed in distilled water with 4% DMSO, 30% PEG300, and 5% Tween80 and administered orally at a concentration of 10 mg/kg daily for 21 days. LX-5701 was mixed in PBS and administered orally at a concentration of 360 mg/kg daily for 21 days. LX-6807 was mixed in saline and administered intraperitoneally at a concentration of 1 mg/kg daily for 21 days. The control group received only the solution in the same volume. After the end of drug administration, the methods described in each example below were performed.
Mice were sacrificed, and liver sections were prepared using the same method as in Example 7-3 of WO2023-085787 A1. Fat accumulation was stained with Oil Red O. In addition, AST and ALT, indicators of liver damage, were measured using the same method as in Example 8-8 of WO2023-085787 A1. […] The Oil Red O staining area and the amount of liver damage indicators after obesity-induced aging were calculated as 100% and compared with the values after treatment with the test compound.

Tocofersolan [LX-3001]
ALT [1]: 85 (±3.6) % | AST [1]: 81 (±5.4) % | AST [2]: 81 (±4.7) %
